From ChEMBL document CHEMBL1147799, “An integrated in silico 3D model-driven discovery of a novel, potent, and selective amidosulfonamide 5-HT1A agonist (PRX-00023) for the treatment of anxiety and depression” (J Med Chem, 2006) come the findings set out here.

By UniProt entry, the sequences of proteins in these tests, tags left out.
UniProt P08908, whole entry: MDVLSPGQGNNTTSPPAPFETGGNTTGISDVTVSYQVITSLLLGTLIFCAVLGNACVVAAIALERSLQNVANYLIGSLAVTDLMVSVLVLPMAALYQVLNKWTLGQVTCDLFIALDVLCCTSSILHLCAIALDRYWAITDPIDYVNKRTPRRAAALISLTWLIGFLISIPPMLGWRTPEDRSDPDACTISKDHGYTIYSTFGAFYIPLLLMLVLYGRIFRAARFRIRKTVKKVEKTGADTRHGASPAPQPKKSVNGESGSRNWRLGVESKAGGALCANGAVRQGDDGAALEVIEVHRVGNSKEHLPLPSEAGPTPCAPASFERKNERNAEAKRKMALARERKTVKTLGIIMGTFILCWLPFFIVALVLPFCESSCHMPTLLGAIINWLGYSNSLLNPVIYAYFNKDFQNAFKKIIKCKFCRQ

SMILES strings stand for the structures. pEC50: −log10 of the molar value.

This assay deals with 5-hydroxytryptamine receptor 1A (Homo sapiens, UniProt P08908). Briefly: Activity against 5HT1A receptor by Gi-[35S]GTP-gamma-S binding assay. The class given is functional. In general terms: Binding of GTPγS marks nucleotide exchange on a G protein.

Turning to `CC(=O)Nc1cccc(N2CCN(CCCCNS(=O)(=O)c3ccc(C)cc3)CC2)c1`, the pEC50 is 7.70.

By pEC50 is commonly meant the EC50 on a negative log10 scale, so that one unit is a factor of ten.
